The target of this experiment is T1, C5a anaphylatoxin chemotactic receptor 1 (Homo sapiens, UniProt P21730).
T1 sequence (P21730 whole entry): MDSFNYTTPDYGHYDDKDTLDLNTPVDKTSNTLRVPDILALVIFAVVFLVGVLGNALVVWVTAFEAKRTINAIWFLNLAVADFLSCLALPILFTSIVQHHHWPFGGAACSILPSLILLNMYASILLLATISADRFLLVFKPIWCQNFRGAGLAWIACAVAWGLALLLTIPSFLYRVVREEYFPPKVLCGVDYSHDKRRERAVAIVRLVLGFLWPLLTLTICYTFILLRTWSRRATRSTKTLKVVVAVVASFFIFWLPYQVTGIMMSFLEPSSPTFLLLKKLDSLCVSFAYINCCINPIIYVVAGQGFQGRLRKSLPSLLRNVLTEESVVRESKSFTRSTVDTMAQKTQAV
Briefly: 50% reduction in myeloperoxidase secretion from human PMNs mediated by 100 nM C5a.

Turning to `CC(=O)N[C@@H](Cc1ccccc1)C(=O)N[C@H]1CCCCNC(=O)[C@H](CCCNC(=N)N)NC(=O)[C@H](Cc2c[nH]c3ccccc23)NC(=O)[C@@H](CC2CCCCC2)NC(=O)[C@@H]2CCCN2C1=O`, the midpoint of inhibition, the IC50, lay at 90 nM.
